Experiment: Inhibition of [3H](+)-pentazocine binding to sigma receptor of guinea pig brain

SMILES: CN1CC[C@@]2(c3cccc(O)c3)CC(=O)C(=Cc3ccc(Cl)c(Cl)c3)[C@@H]1C2
- Ki: 32 nM

SMILES: CN1CC[C@@]2(c3cccc(O)c3)CC(=O)C(=Cc3ccc(Cl)c(Cl)c3)[C@H]1C2
- Ki: 3200 nM

Source: BindingDB's records for doi:10.1021/jm00045a022 (National Institute of Diabetes and Digestive and Kidney …, 1994)
